Test results published in US7750135B2, “Molecular design of thermostable alcohol dehydrogenase for synthesis for chiral aromatic alcohols” (Board of Trustees of Michigan State University, priority 2007, dated 2010).

Chains of the proteins cited; added tags and fusions are not shown.
UniProt P14941, whole entry W110A/A186D: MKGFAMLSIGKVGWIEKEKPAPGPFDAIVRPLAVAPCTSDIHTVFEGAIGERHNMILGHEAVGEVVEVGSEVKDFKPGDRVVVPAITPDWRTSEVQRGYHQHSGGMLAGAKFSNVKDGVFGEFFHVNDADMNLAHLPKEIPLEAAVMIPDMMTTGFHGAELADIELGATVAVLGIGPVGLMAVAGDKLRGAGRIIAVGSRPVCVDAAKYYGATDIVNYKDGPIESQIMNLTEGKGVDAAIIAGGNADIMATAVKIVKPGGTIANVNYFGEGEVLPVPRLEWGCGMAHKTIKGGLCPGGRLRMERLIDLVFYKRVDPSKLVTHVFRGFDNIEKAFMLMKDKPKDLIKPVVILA

Legend:
Format in all cases: biochemical, Thermoanaerobacter ethanolicus
W110A TeSADH [1] = target: T1, W110A TeSADH (Thermoanaerobacter brockii, UniProt P14941, A186D/W110A); settings: 60° C., 1 min, 50 mM Tris-HCl pH ~8.0 (alcohols) or ~6.5 (ketones), 0.4 mM NADP(H)
T1 construct: His6 (C); made in house; host or cells: E. coli HB101 (DE3) and BL21 (DE3), pET24a(+)

W110A TeSADH [2] = target: T1, W110A TeSADH; settings: substrate 10 mM; 60° C., 1 min, 50 mM Tris-HCl pH~6.5 (reduction of ketones) or pH~8.0 (oxidation of alcohols), 0.4 mM NADP(H)
W110A TeSADH [3] = settings: purified W110A TeSADH versus TeSADH
W110A TeSADH [4] = target: T1, W110A TeSADH; settings: heat-treated crude extracts

Compound: CCC(C)O (centres unmarked) [2-Butanol]
- Vmax (app), W110A TeSADH (W110A TeSADH [1]): 29.2 ± 3.6 U/mg
- Km (W110A TeSADH [1]; read-out: Km (app), W110A TeSADH): 80.3 ± 18 mM
- Specific activity, W110A (W110A TeSADH [2]): 3.65 U(umol)/mg protein
- Fold lower activity of W110A TeSADH than TeSADH (W110A TeSADH [3]): 10 fold
- Activity of W110A TeSADH (W110A TeSADH [4]): much less active
